The source of these data is ChEMBL document CHEMBL1143566, “Discovery of a potent and selective inhibitor of cyclin-dependent kinase 4/6” (J Med Chem, 2005).

Usually IC50 stands for the concentration at which inhibition is half-maximal.

For the experiment, the target named is Cyclin-dependent kinase 2/cyclin A (Homo sapiens, UniProt P24941).
The molecule `CC(=O)c1cc2cnc(Nc3ccc(N4CCNCC4)cn3)nc2n(C2CCCC2)c1=O` gave an IC50 of over 5 µM.
Next, `Cc1cc(=O)n(C2CCCC2)c2nc(Nc3ccc(N4CCNCC4)cn3)ncc12`: over 5 µM; `Cc1c(Br)c(=O)n(C2CCCC2)c2nc(Nc3ccc(N4CCOCC4)cn3)ncc12`: over 5 µM.
In the case of `COCCOCc1cc2cnc(Nc3ccc(N4CCNCC4)cn3)nc2n(C2CCCC2)c1=O`, the IC50 was over 5 µM.
Consider `COCCN(CCOC)c1ccc(Nc2ncc3c(C)c(Br)c(=O)n(C4CCCC4)c3n2)nc1`, for which the IC50 was over 5 µM.
Next, `O=c1c(Br)cc2cnc(Nc3ccccn3)nc2n1C1CCCC1`: over 5 µM.
Molecule `Cc1c(Br)c(=O)n(C2CCCC2)c2nc(Nc3ccc(N4CCN(C)CC4)cn3)ncc12` returned an IC50 of over 5 µM.
Consider `Cc1c(Br)c(=O)n(C2CCCC2)c2nc(Nc3ccc(N4CC(C)NC(C)C4)cn3)ncc12` (stereo unspecified), for which the IC50 is over 5 µM.
The molecule `CC(=O)c1c(C)c2cnc(Nc3ccccn3)nc2n(C2CCCC2)c1=O` showed a half-inhibitory concentration (IC50) of over 5 µM.
In turn, `CCOCCOc1cc2cnc(Nc3ccc(N4CCNCC4)cn3)nc2n(C2CCCC2)c1=O` gave an IC50 of over 5 µM.
`CC(=O)c1c(C)c2cnc(Nc3ccc(N4CCN(C)CC4)cn3)nc2n(C2CCCC2)c1=O`: the IC50 was over 5 µM.
In turn, `Cc1c(Br)c(=O)n(C2CCCC2)c2nc(Nc3ccc(N4CCNCC4)cn3)ncc12` had an IC50 of over 5 µM.
The molecule `Cc1c(Br)c(=O)n(C2CCCC2)c2nc(Nc3ccc(N4CCC(O)CC4)cn3)ncc12` displayed an IC50 of over 5 µM.
`CC(=O)c1c(C)c2cnc(Nc3ccc(N4CC(C)NC(C)C4)cn3)nc2n(C2CCCC2)c1=O` (stereo unspecified) displayed an IC50 of over 5 µM.
`O=c1c(CO)cc2cnc(Nc3ccc(N4CCNCC4)cn3)nc2n1C1CCCC1` registered an IC50 of over 5 µM.
Regarding `CC(=O)c1c(C)c2cnc(Nc3ccc(N4CCCNCC4)cn3)nc2n(C2CCCC2)c1=O`, the IC50 is over 5 µM.
For the molecule `CC(=O)c1c(C)c2cnc(Nc3ccc(N4CCC(N)C4)cn3)nc2n(C2CCCC2)c1=O` (stereo unspecified), the half-maximal inhibitory concentration (IC50) is over 5 µM.
For the molecule `Cc1c(Br)c(=O)n(C2CCCC2)c2nc(Nc3ccccn3)ncc12`, the IC50 is over 5 µM.
With `O=c1c(F)cc2cnc(Nc3ccc(N4CCNCC4)cn3)nc2n1C1CCCC1`, the concentration for half-maximal inhibition (IC50) was over 5 µM.
In turn, `CCOCCc1cc2cnc(Nc3ccc(N4CCNCC4)cn3)nc2n(C2CCCC2)c1=O` displayed an IC50 of over 5 µM.
`O=c1ccc2cnc(Nc3ccc(N4CCNCC4)cn3)nc2n1C1CC1` returned an IC50 of over 5 µM.
Take `CCOC(=O)c1cc2cnc(Nc3ccc(N4CCNCC4)cn3)nc2n(C2CCCC2)c1=O`: the IC50 was over 5 µM.
The molecule `CC(=O)c1c(C)c2cnc(Nc3ccc(N4CCOCC4)cn3)nc2n(C2CCCC2)c1=O` yielded an IC50 of over 5 µM.
Regarding `CCOCc1cc2cnc(Nc3ccc(N4CCNCC4)cn3)nc2n(C2CCCC2)c1=O`, the IC50 is over 5 µM.
Molecule `CC(=O)c1c(C)c2cnc(Nc3ccc(N4CCNC(C)(C)C4)cn3)nc2n(C2CCCC2)c1=O` displayed an IC50 of over 5 µM.
Take `CC(C)n1c(=O)ccc2cnc(Nc3ccc(N4CCNCC4)cn3)nc21`: the IC50 is over 5 µM.
